Assay results reported in US10689362B2, “Quinoxaline compounds as type III receptor tyrosine kinase inhibitors” (Development Center for Biotechnology, priority 2016, dated 2020).
Read-outs that look alike come from different tables or passages of the source.

Columns and labels:
Assay type in all cases: cell-based
[1] = test system: Kasumi-1 human acute myeloid leukemia cell with c-KIT N822K activating mutation; test: Kasumi-1 cell proliferation assay (CellTiter-96); conditions: Cytotoxicity, Kasumi-1 cells
Description: (§1) Inhibition of cell growth by compounds was measured using CellTiter™-96 assay. The cytotoxicity of compounds was evaluated in CSF-1-dependent M-NFS-60 mouse myeloid leukemia cell, FLT3 signal addicted MV4-11 human acute myeloid leukemia cell with FLT3-ITD mutation, c-KIT signal addicted Kasumi-1 human acute myeloid leukemia cell with c-KIT N822K activating mutation, and THP-1 human acute monocytic leukemia cell harboring NRAS G12D mutation.
The compounds disclosed herein were tested in Kasumi cell proliferation assay to determine their cellular potency against c-KIT kinase. Kasumi human acute myeloid leukemia cells harbor ligand-independent N822K c-KIT activating mutation, thus the cell proliferation relied on c-KIT signal. Inhibition of c-KIT kinase activity will cause reduced growth and/or cell death. Kasumi-1 cells (catalog # CRL-2724) were obtained from the American Type Culture Collection (ATCC, Manassas, Va.). Briefly, cells were grown in suspension in RPMI 1640 medium supplemented with 10% characterized fetal bovine serum (Invitrogen, Carlsbad, Calif.) at 37° C., 5% CO2, and 95% humidity. Cells were allowed to expand until reaching saturation at which point they were subcultured or harvested for assay use.
(§2) M-NFS-60, Kasumi-1, MV4-11 and THP-1 cells were seeded into 96-well plates at 2000, 64000, 6500, and 5000 cells/well, respectively, and incubated at 37° C., 5% CO2 overnight. Then, these seeded cells were treated with increasing concentrations of the test compounds and incubated for another 72 hours. At the end of the incubation, CellTiter96® AQueous One Solution Reagent (Promega) was added and incubated for 4 hours. Cell viability was determined by measuring absorbance at 490 nm using EMax® microplate reader (Molecular Devices).
(§3) The 50% inhibitory concentration (IC50) value was calculated by plotting the percentage of growth inhibition against the concentration of compound, using GraphPad Prism 5 software for curve fitting.

[2] = test system: THP-1 human acute monocytic leukemia cell harboring NRAS G12D mutation; test: THP-1 cell proliferation assay (counter screen, CellTiter-96); conditions: Cytotoxicity, THP-1 cells (counter screen), 72 hours
Description: as §1
THP-1 human acute monocytic leukemia cells harbor NRAS G12D mutation, which renders cell proliferate independently of class III RTKs signal. THP-1 cells (catalog # TIB-202) were obtained from the ATCC. Briefly, cells were grown in RPMI 1640 supplemented with 10% characterized fetal bovine serum, and 0.05 mM 2-mercaptoethanol at 37° C., 5% CO2, 95% humidity. Cells were allowed to expand until reaching saturation at which point they were subcultured or harvested for assay use.
as §2, §3

[3] = test system: MV4-11 human acute myeloid leukemia cell with FLT3-ITD mutation; test: MV4-11 cell proliferation assay (CellTiter-96); conditions: read-out: MV4-11 IC50
Description: as §1
The compounds disclosed herein were tested in MV4-11 cell proliferation assay to determine their cellular potency against FLT3 kinase. MV4-11 human acute myeloid leukemia cells harbor ligand-independent FLT3-ITD activating mutation, which render its proliferation FLT3-ITD dependent. Inhibition of FLT3 kinase activity will cause reduced growth and/or cell death. MV4-11 cells (catalog # CRL-9591) were obtained from the American Type Culture Collection (ATCC, Manassas, Va.). […] Cells were allowed to expand until reaching saturation at which point they were subcultured or harvested for assay use.
as §2, §3

[4] = test system: CSF-1-dependent M-NFS-60 mouse myeloid leukemia cell; test: M-NFS-60 cell proliferation assay (CellTiter-96); conditions: Cytotoxicity, M-NFS-60 cells, 72 hours
Description: as §1
The compounds disclosed herein were tested in M-NFS-60 cell proliferation assay to determine their cellular potency against CSF-1R. The proliferation and viability of M-NFS-60 cells, a murine myeloblastic cell line, depend on the binding of the ligand M-CSF to its receptor, CSF-1R, to proliferate. Inhibition of CSF-1R kinase activity will cause reduced growth and/or cell death. M-NFS-60 cells (catalog # CRL-1838) were obtained from the American Type Culture Collection (ATCC, Manassas, Va.). Briefly, cells were grown in suspension in RPMI 1640 medium supplemented with 10% characterized fetal bovine serum (Invitrogen, Carlsbad, Calif.), 0.05 mM 2-mercaptoethanol, and 20 ng/mL mouse recombinant macrophage colony stimulating factor (M-CSF) at 37° C., 5% CO2, and 95% humidity. Cells were allowed to expand until reaching saturation at which point they were subcultured or harvested for assay use.
as §2, §3

[5] = test system: osteoclast precursors (osteoclast differentiation); test: Osteoclast tartrate-resistant acid phosphatase assay; conditions: 168 h, at 1 μM treatment, 7 days, RANKL and M-CSF, read-out: inhibition activity against osteoclast differentiation
Description: A serial dilution of test compound was dispensed into a 96-well black clear bottom plate. Compound was diluted by the addition of DMEM media supplemented with 10% characterized fetal bovine serum. Diluted compound was transferred to a 96-well black clear bottom plate. Three thousand osteoclast precursors (Lonza, Walkersville, Md.) were added per well in growth medium containing Receptor Activator of Nuclear Factor Kappa-beta ligand (RANKL) and M-CSF. Plates were incubated for 7 days at 37° C., 5% CO2, and 95% humidity to allow differentiation of osteoclast precursors. At the end of the incubation period, 50 μL of supernatant from each well was transferred to a clear 96-well plate. Tartrate-resistant acid phosphatase activity in the supernatant samples was determined using an acid phosphatase assay kit (Sigma, St. Louis, Mo.). Absorbance was measured at 550 nm using a plate reader. […] The Inhibition activity against osteoclast differentiation for each compound at 1 μM treatment in duplicate was measured.

Row | SMILES | IC50 ([1]; 72 hours) [µM] | IC50 ([2]; Homo sapiens) [µM] | IC50 [3] [µM] | IC50 ([4]; Mus musculus) [µM] | inhibition at 1 µM [5] [%] | IC50 [2] [µM] | IC50 [4] [µM] | IC50 ([1]; Homo sapiens, Kasumi 1, 72 h) [µM] | IC50 ([3]; Homo sapiens, MV4-11, 72 h) [µM]
1 | COc1ccc(COc2ccc(Oc3ccc4ncc(OC)nc4c3C#N)cc2OC)cc1 [Example 10, 3-methoxy-6-(3-methoxy-4-((4-methoxpenzyl)oxy)phenoxy)quinoxaline-5-carbonitrile] | > 10 | > 10 | 1 to 10 | < 0.3 | > 50 |  |  |  | 
2 | COc1ccc(COc2ccc(Oc3ccc4ncc(OC)nc4c3C#N)cc2OC)cc1 [Example 26, 3-methoxy-6-(3-methoxy-4-((4-methoxybenzyl)oxy)phenoxy)quinoxaline-5-carbonitrile] | 1 to 10 |  | > 10 |  |  | > 10 | < 0.3 |  | 
3 | CCOc1cc(Oc2ccc3ncc(OC)nc3c2C#N)ccc1OCc1ccc(OC)cc1 [Example 30, 6-(3-ethoxy-4-((4-methoxybenzyl)oxy)phenoxy)-3-methoxyquinoxaline-5-carbonitrile] |  | > 10 |  | < 0.3 |  |  |  | > 10 | > 10
4 | COc1cc(Nc2ccc3ncc(N4CCOCC4)nc3c2C#N)ccc1OCc1cccnc1 [Example 43, 6-((3-methoxy-4-(pyridin-3-ylmethoxy)phenyl)amino)-3-morpholinoquinoxaline-5-carbonitrile] |  | > 10 |  | 0.3 to 1 |  |  |  | 0.3 to 1 | 1 to 10
5 | COc1cc(Nc2ccc3ncc(N4CCOCC4)nc3c2C#N)ccc1OCc1ccc(C)nc1 [Example 54, 6-((3-methoxy-4-((6-methylpyridin-3-yl)methoxy)phenyl)amino)-3-morpholinoquinoxaline-5-carbonitrile] |  | > 10 |  | < 0.3 | > 50 |  |  | 0.3 to 1 | 1 to 10
6 | COc1cc(Nc2ccc3ncc(N4CCOCC4)nc3c2C#N)ccc1OCc1cnc(C)nc1 [Example 128, 6-((3-methoxy-4-((2-methylpyrimidin-5-yl)methoxy)phenyl)amino)-3-morpholinoquinoxaline-5-carbonitrile] |  | > 10 |  | 0.3 to 1 |  |  |  | 1 to 10 | 1 to 10
7 | COc1cc(Nc2ccc3ncc(N4CCOCC4)nc3c2C#N)ccc1OCc1cnn(C2CC2)c1 [Example 134, 6-((4-((1-cyclopropyl-1H-pyrazol-4-yl)methoxy)-3-methoxy-phenyl)amino)-3-morpholinoquinoxaline-5-carbonitrile] |  | > 10 |  | < 0.3 | > 50 |  |  | 0.3 to 1 | 1 to 10
